Structures are written as SMILES. “And” between values parts separate entries of the source, which are not always exact repeats. Identical values can stand only once. Only a part is listed here, and it is no random draw. Results filed as inconclusive are left out. A call without a number means that no potency is given here. Some structures have more than one record in an assay (separate samples or runs), and their calls can disagree. The source made the active and inactive calls. The call rests on the fitted dose curve; in most records, active means well fitted activation curve with a large enough effect; inconclusive means small, poorly fitted or top-dose-only effect; inactive means no such curve, though single readings can be large or run the other way.

The text below walks through data of PubChem BioAssay AID624297 (National Center for Advancing Translational Sciences (NCATS), 2012).
Potency means the concentration at half of the fitted maximal effect.

A short description of the test: A quantitative high throughput screen for small molecules that induce DNA re-replication in SW480 colon adenocarcinoma cells. Further: nearly all actives have a fitted effect of over 55% in size. The note with it: Hoechst DNA content imaging, 48 h; series mostly up to 46.1 µM.
In the case of `COc1ccc(C[C@H](C)NC[C@@H](O)c2ccc(O)c(NC=O)c2)cc1`, the Potency result is “inactive and active: 2.82 µM”. `COc1ccc(CC(C)NCC(O)c2ccc(O)c(NC=O)c2)cc1` (configuration not stated): the Potency entry is “inactive”.
